Reference: ChEMBL document CHEMBL5036322 (J Med Chem, 2021)

System: MB002
Assay: Antiproliferative activity against human MB002 cells harboring TP53 mutation at codon 141 TGC-TTC assessed as reduction in cell viability measured after 3 days by CellTiter-Glo assay
Details: time 3.0 day

`Cc1ccc(NC(=O)NCc2ccc3c(c2)CN(C2CCC(=O)NC2=O)C3=O)cc1Cl` (stereo unspecified) was tested, and the Activity was “Active”.

The source made the active and inactive calls. No cut-off for these calls is given here.
